# Apparent affinities of Ab-14 variants for a coronavirus HR2 peptide

Data: MIT Lincoln Laboratory AlphaSeq set, Li et al. 2023, doi:10.1038/s41467-023-39022-2, as distributed in FLAb.

Target: peptide PDVDLGDISGINAS, taken from heptad repeat 2 (HR2) of SARS-CoV-2 spike.

Parent: Ab-14, a human scFv built as VH, a 15-residue (Gly4Ser)3 linker, VL. Only the CDRs of the light chain vary.
VH: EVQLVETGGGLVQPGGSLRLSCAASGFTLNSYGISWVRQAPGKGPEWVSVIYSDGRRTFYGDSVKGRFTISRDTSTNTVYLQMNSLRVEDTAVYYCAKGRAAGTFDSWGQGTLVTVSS
VL: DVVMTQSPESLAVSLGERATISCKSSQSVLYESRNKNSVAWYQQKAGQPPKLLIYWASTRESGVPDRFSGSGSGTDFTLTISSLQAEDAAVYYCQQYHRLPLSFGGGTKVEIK

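The parent was found by panning a naive human phage display library on the peptide. These sequences belong to a second round, designed from the earlier measurements on random variants of the parent. Group labels follow the data file (Ctrl: baseline library sampled from a position-specific scoring matrix, with some repeated check sequences; Rand: our label for a block that the file lists under HC and that is probably the random mutants of the ten best first-round binders; GP: Gaussian process model; HC: hill climbing; Gen: genetic algorithm; Gibbs: Gibbs sampling; a sequence that several methods proposed may carry one label only). In AlphaSeq, yeast of one mating type display the scFv and yeast of the other type display the target. After mating in shaken culture at 30 °C for 16 h, diploids were selected and their barcode pairs sequenced. The ratio of observed to expected reads was calibrated, replicate by replicate, on BCL2-family standards whose Kd was known from biolayer interferometry. Each pool was mated in six replicate cultures.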

Each variant is given by its three light chain CDRs, as the data file delimits them; those of the parent are KSSQSVLYESRNKNSVA, WASTRES, QQYHRLPLS.
This list holds designs with at most six substitutions.
Affinities are written as log10 Kd with Kd in nM; a lower number is a better binder.
Averages over replicates are reported, and they cover detected replicates only.
An entry "nd" has no value in the source: the pair was not observed among the diploids in that replicate. This suggests poor binding but is not conclusive.
The list is sorted by this average, lowest first, undetected variants last.

- KFSQSVLQESRNQNSVA | NASTRES | QQYHRLPLS [Ctrl] -> -0.39, -0.52, -0.48, -0.61, -0.59, -0.37 (mean -0.49)
- KQSQQPLYESRNKNSVA | DASTRES | QQYHRLPLS [GP_HC] -> -0.22, -0.35, -0.36, -0.50, -0.65, -0.49 (mean -0.43)
- KLRQSVLYESRNQNSVA | NASTRES | QQYHRLPLS [GP_HC] -> -0.26, -0.36, -0.50, -0.60, -0.49, -0.25 (mean -0.41)
- QSSQSELYESRNKNSVA | GASTRES | QQYHRLTLS [GP_HC] -> -0.69, -0.62, -0.25, -0.26, -0.74, 0.11 (mean -0.41)
- KLDQSNLYESRNKNSVA | GASTRES | QQYHRLPLS [GP_HC] -> -0.39, -0.21, -0.34, -0.20, -0.48, -0.42 (mean -0.34)
- KLQQSVLYESRNKNNVA | HASTRED | QQYARLPLS [GP_HC] -> 0.06, -0.29, -0.32, -0.58, -0.42, -0.21 (mean -0.29)
- ASSQSWLYEGRNKNSVA | GASTRED | QQYHRLPLS [GP_HC] -> -0.09, -0.30, -0.38, -0.50, -0.20, -0.21 (mean -0.28)
- KQSQSVLYESRNKNNVA | DASTRSS | QQYHRLPLS [GP_HC] -> -0.20, -0.12, -0.47, -0.45, -0.34, -0.07 (mean -0.27)
- LLPQSMEYESRNKNSVA | SASTRES | QQYHRLPLS [GP_Gibbs] -> -0.13, -0.14, -0.26, -0.35, -0.20, -0.11 (mean -0.20)
- KLSQSVLYESRVKNNVA | EASTRES | QQYHRLPLS [GP_Gen] -> 0.00, -0.24, -0.16, -0.37, -0.15, -0.14 (mean -0.18)
- KSSWSVLFESRNKNSVA | DASTRSE | QQYHRLPLS [GP_HC] -> -0.09, -0.18, -0.28, -0.19, -0.17, 0.02 (mean -0.15)
- KLSQSYLYESMNKNSVA | EASTRES | QQYHRLPLS [GP_HC] -> -0.11, 0.05, -0.40, -0.31, -0.05, 0.01 (mean -0.13)
- KESQSWSYESRNKNSVA | GASTRES | QQYHRLPLS [GP_HC] -> 0.01, -0.15, -0.14, -0.33, -0.09, -0.10 (mean -0.13)
- KFSLSVLFESRNKNSVA | NASTRES | QQYHRLPLS [GP_HC] -> 0.15, -0.05, -0.19, -0.46, -0.15, 0.00 (mean -0.12)
- KVSISYLGESRNKNSVA | EASTRES | QQYHRLPLS [GP_HC] -> 0.22, -0.14, -0.34, -0.20, -0.03, -0.03 (mean -0.09)
- KLSQSVVYESRNKNSVA | NASTRES | QQYHRLPLS [GP_Gibbs] -> 0.02, -0.07, -0.02, -0.39, 0.04, 0.10 (mean -0.05)
- KSSFSVLYESRNKNSVA | DASTRES | QQYHRLPLS [Ctrl] -> 0.06, 0.02, -0.13, -0.11, 0.07, 0.07 (mean 0.00)
- KSSQAVPYESLNKNSVA | AASTRES | QQYHRLPLS [Ctrl] -> -0.09, 0.09, -0.12, 0.20, 0.13, -0.13 (mean 0.01)
- KLEMSWLYESRNKNSVA | NASTRES | QQYHRLPLS [GP_Gen] -> 0.17, -0.05, -0.03, -0.10, -0.06, 0.19 (mean 0.02)
- KLSFSVLYESRNKNSVA | DASTRES | QQYHRLPLS [GP_Gen] -> 0.24, 0.03, 0.00, -0.21, -0.22, 0.27 (mean 0.02)
- KSSQSVLYESRNKNSVA | KASTRES | QQYARLPLS [Ctrl] -> 0.29, -0.17, -0.04, -0.09, -0.03, 0.21 (mean 0.03)
- KLSQSVSYESRNKNSVA | EASTRES | QQYHRLPLS [GP_Gen] -> 0.27, -0.28, 0.09, -0.31, 0.16, 0.51 (mean 0.07)
- KLSYSNLYESRNKNSVA | NASTRCQ | QQYHRLPLS [GP_Gibbs] -> 0.35, 0.08, -0.16, 0.08, 0.06, 0.28 (mean 0.12)
- KSSQSVDYESPNKNSVA | SASTRES | QQYHRLPLS [Ctrl] -> 0.24, 0.12, 0.17, -0.04, 0.07, 0.17 (mean 0.12)
- KISQSVLYESRNKNSVA | GASTRLS | QQYHRLPLS [GP_Gen] -> -0.47, 0.65, 0.34, 0.02, 0.16, 0.19 (mean 0.15)
- KSSQSWPYGSRNKNSVA | WASTRES | QQYHRLPLS [Ctrl] -> 0.42, -0.23, 0.25, 0.03, 0.57, 0.39 (mean 0.24)
- KSSISELYESRNTNSVA | EASTRES | QQYHRLPLS [GP_HC] -> 0.18, 0.17, 0.24, 0.37, 0.11, 0.36 (mean 0.24)
- KVSQSVLYEDRNKNSVA | NASTRES | QQYHRLPLS [GP_Gen] -> 0.22, 0.42, 0.25, 0.25, 0.25, 0.09 (mean 0.25)
- KVSQSVLYESGTKASVA | NASHRES | QQYHRLPLS [GP_HC] -> 0.51, 0.20, 0.15, 0.00, 0.39, 0.35 (mean 0.27)
- IAVQSELYESRNKNSVA | GASTRES | QQYHRLPLI [GP_HC] -> 0.38, 0.26, 0.27, 0.25, 0.16, 0.38 (mean 0.28)
- KSSQSVLYESLNKNSVA | NASTRES | QQYHRLPLS [Ctrl] -> 0.43, 0.35, 0.28, 0.19, 0.24, 0.31 (mean 0.30)
- KLSQSELYESRNKNSVA | EASTREV | QQYHRLPLS [GP_Gen] -> 0.54, 0.47, 0.24, 0.05, 0.17, 0.34 (mean 0.30)
- KVSQSWLYESRNSNSVA | NASTRES | QQYHRLPLS [GP_Gen] -> 0.41, 0.39, 0.21, 0.21, 0.24, 0.49 (mean 0.33)
- KLSASVLYEKRNKNSVA | QASQRCS | QQYHRLPLS [GP_Gibbs] -> 0.69, 0.40, 0.41, 0.37, 0.13, 0.13 (mean 0.35)
- KSLQSQEYESRNKNSVA | HASTRED | QQYHKLPLS [GP_HC] -> 0.67, 0.34, 0.26, 0.28, 0.29, 0.48 (mean 0.39)
- KSSISYLYESRNKNSVA | EASTREK | QQYHRLPLM [GP_HC] -> 0.48, 0.36, 0.28, 0.37, 0.45, 0.67 (mean 0.44)
- KLLQSVLYESRNKNSVA | NASTRES | QQYHRLPLS [GP_Gen] -> 1.00, 0.68, 0.39, 0.40, 0.10, 0.63 (mean 0.53)
- KLEMSWLYESRNKNSVA | NASQRES | QQYHRLPLS [GP_Gen] -> 0.98, 0.86, 0.27, 0.13, 0.34, 0.88 (mean 0.58)
- KSSQEVLQEDRNKNSVA | TASERES | QQYHRLPLS [Ctrl] -> 0.65, 0.62, 0.02, 1.46, 0.57, 0.39 (mean 0.62)
- KSSPVVLYESLNKNSVA | NASTRMS | QQYHRLPLS [GP_HC] -> 1.36, 0.45, 0.56, 0.33, 0.51, 0.51 (mean 0.62)
- KFSQSVLYESRTKNSVA | NASTRES | QWYHRWPLS [Rand] -> 0.61, 0.66, 0.55, 0.37, 0.81, 0.98 (mean 0.66)
- KSSQSVLYESRNKNSVA | WASTRSS | QQYHKLPLS [Ctrl] -> 0.68, 0.84, 0.99, 1.15, 1.47, 0.98 (mean 1.02)
- KSSQSVLIESRNKNSVA | HASTRES | QQYHHLPLS [Ctrl] -> 0.98, 1.31, 0.86, 0.68, 1.23, 1.30 (mean 1.06)
- KSSYSLLGESRNKNSVA | WASTRES | QQYHHLPLS [Ctrl] -> 0.98, 0.81, 0.87, 1.31, 1.39, 1.19 (mean 1.09)
- YHSQSVLYESRNKNSVA | WASTRES | QQYHRLPLS [Ctrl] -> nd, nd, nd, nd, nd, nd
- KSSQSVLYETRNKNSVA | GASTRES | PQYHGLPLW [Ctrl] -> nd, nd, nd, nd, nd, nd
- KSSQSVLYESRNKTSVA | WSSTRES | QQYHRLPLS [Ctrl] -> nd, nd, nd, nd, nd, nd
- KSAQSVLYESFNKNSVA | AASTRES | QQHCRLPLS [Ctrl] -> nd, nd, nd, nd, nd, nd
- KSSQSVLYESRNKNSVA | RASTRES | YQYHRLPLS [Ctrl] -> nd, nd, nd, nd, nd, nd
- KSSQSMLYESRNKNSVA | WASTRES | AQYHRLPLS [Ctrl] -> nd, nd, nd, nd, nd, nd

Extract of 4 entries:

| CDR-L1 | CDR-L2 | CDR-L3 | group | log10 Kd, replicates | mean log10 Kd (nM) |
|---|---|---|---|---|---|
| KSSQAVPYESLNKNSVA | AASTRES | QQYHRLPLS | Ctrl | -0.09, 0.09, -0.12, 0.20, 0.13, -0.13 | 0.01 |
| KLSFSVLYESRNKNSVA | DASTRES | QQYHRLPLS | GP_Gen | 0.24, 0.03, 0.00, -0.21, -0.22, 0.27 | 0.02 |
| KFSLSVLFESRNKNSVA | NASTRES | QQYHRLPLS | GP_HC | 0.15, -0.05, -0.19, -0.46, -0.15, 0.00 | -0.12 |
| LLPQSMEYESRNKNSVA | SASTRES | QQYHRLPLS | GP_Gibbs | -0.13, -0.14, -0.26, -0.35, -0.20, -0.11 | -0.20 |

In the paper, a design with two or fewer of six values counts as a poor binder.
The range of this assay differs from that of the first round, and the authors advise against merging the two.
Background: pairings of all light chain designs with three empty control strains gave a value in 4% of cases (median 2.64, 5th percentile 1.59). Values in that range, when seen in few replicates, are hard to tell from nonspecific mating.
The parent sequence was in this pool as ten entries: three were never detected, three once, and four in most replicates, with averages from 0.34 to 2.37.